Data from patent US10442819B2, “Tricyclic compounds as inhibitors of mutant IDH enzymes” (Merck Sharp & Dohme Corp., priority 2014, dated 2019).

Sequences of proteins named here, by UniProt entry; tags and fusion partners are left off.
UniProt O75874, whole entry R132H: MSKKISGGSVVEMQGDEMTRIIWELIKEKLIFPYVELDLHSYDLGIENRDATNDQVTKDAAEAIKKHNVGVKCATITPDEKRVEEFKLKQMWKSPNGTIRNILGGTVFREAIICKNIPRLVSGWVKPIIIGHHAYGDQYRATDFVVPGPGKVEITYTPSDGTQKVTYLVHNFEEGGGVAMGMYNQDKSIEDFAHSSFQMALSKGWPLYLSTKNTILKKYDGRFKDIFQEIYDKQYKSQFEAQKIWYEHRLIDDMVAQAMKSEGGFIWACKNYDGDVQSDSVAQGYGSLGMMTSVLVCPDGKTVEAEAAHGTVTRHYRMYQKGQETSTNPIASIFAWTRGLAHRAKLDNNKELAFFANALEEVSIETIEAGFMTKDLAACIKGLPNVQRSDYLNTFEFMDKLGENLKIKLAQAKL

Target: R132H mutant IDH1 enzyme (Homo sapiens (Human), UniProt O75874, R132H)
Assay: R132H IDH1 Enzymatic Assay
Format: biochemical
Settings: R132H mutant IDH1 enzyme 1.5 nM final; luminescence readout; read-out: IC50

| IC50 [µM] | Compound |
| --- | --- |
| 0.218 | CO[C@H]1CC[C@@H](C(=O)N2Cc3cccnc3Nc3ccc(N4CCOCC4)cc32)C[C@H]1C [Example 93, 6-{[(1R,3R,4S)-4-methoxy-3-methylcyclohexyl]carbon-yl}-8-morpholin-4-yl-6,11-dihydro-5H-pyrido[2,3-b][1,5]benzodiazepine] |
| 0.12 | CC(C)O[C@@H](C)[C@H]1CC[C@H](C(=O)N2Cc3cccnc3Nc3ccc(N4CCOCC4)cc32)CC1 [Example 174, [8-(Morpholin-4-yl)-5,11-dihydro-6H-pyrido[2,3-b][1,5]benzodiazepin-6-yl]{trans-4-[(1S)-1-(propan-2-yloxy)ethyl]cyclohexyl}methanone] |
| 0.091 | CO[C@H](C(C)C)[C@H]1CC[C@@H](C(=O)N2Cc3cccnc3Nc3ccc(N4CCOCC4)cc32)CC1 [Example 117, 6-({cis-4-[(1R)-1-methoxy-2-methylpropyl]cyclohexyl}-carbonyl)-8-morpholin-4-yl-6,11-dihydro-5H-pyrido[2,3-b][1,5]benzodiazepine] |
| 0.763 | CO[C@H]1CC[C@H](C(=O)N2Cc3cccnc3Nc3ccc(N4CCCC4=O)cc32)CC1 [Example 494, 1-{6-[(trans-4-methoxycyclohexyl)carbonyl]-6,11-dihydro-5H-pyrido[2,3-b][1,5]benzodiazepin-8-yl}pyrrolidin-2-one] |
| 0.81 | COCC1COCCN1c1ccc2c(c1)N(C(=O)[C@H]1CC[C@H](OC)CC1)Cc1cccnc1N2 (stereo partly drawn) [Example 223, 6-[(trans-4-methoxycyclohexyl)carbonyl]-8-[3-(methoxymethyl)morpholin-4-yl]-6,11-dihydro-5H-pyrido[2,3-b][1,5]benzodiazepine] |
| 0.292 | CO[C@H]1CC[C@H](C(=O)N2Cc3cccnc3Nc3ccc(N4CC(C(F)(F)F)C4)cc32)CC1 [Example 416, 6-[(trans-4-methoxycyclohexyl)carbonyl]-8-[3-(trifluoromethyl)azetidin-1-yl]-6,11-dihydro-5H-pyrido[2,3-b][1,5]benzodiazepine] |
| 0.068 | CON=C1CCC(C(=O)N2Cc3cccnc3Nc3ccc(N4C[C@]5(C)C[C@H]4CO5)cc32)CC1 (stereo partly drawn) [Example 350, 4-({8-[(1S,4S)-1-methyl-2-oxa-5-azabicyclo[2.2.1]hept-5-yl]-5,11-dihydro-6H-pyrido[2,3-b][1,5]benzodiazepin-6-yl}carbonyl)cyclohexanone O-methyloxime] |
| 0.771 | CO[C@H]1CC[C@@H](C(=O)N2Cc3cccnc3Nc3ccc(N4CCOCC4)cc32)CC1 [Example 53, 6-[(Cis-4-methoxycyclohexyl)carbonyl]-8-morpholin-4-yl-6,11-dihydro-5H-pyrido[2,3-b][1,5]benzodiazepine] |
| 0.043 | CCO[C@H]1CC[C@H](C(=O)N2Cc3cccnc3Nc3ccc(N4C[C@@H]5CC[C@H]4CO5)cc32)OC1 (single isomer, unassigned) [Example 334] |
| 0.846 | CO[C@H]1CC[C@H](C(=O)N2Cc3cccnc3Nc3ccc(N4CCOC5(CC5)C4)cc32)CC1 [Example 294, 6-[(trans-4-methoxycyclohexyl)carbonyl]-8-(4-oxa-7-azaspiro[2.5]oct-7-yl)-6,11-dihydro-5H-pyrido[2,3-b][1,5]benzodiazepine] |
| 0.564 | COC1CCC(C(=O)N2Cc3cccnc3Nc3ccc(N4CCCC(OC)C4)cc32)CC1 (stereo not shown) [Example 202, 6-[(4-methoxycyclohexyl)carbonyl]-8-(3-methoxypiperidin-1-yl)-6,11-dihydro-5H-pyrido[2,3-b][1,5]benzodiazepine] |
| 0.098 | CCC(=O)N1CC2CCC1CN2c1ccc2c(c1)N(C(=O)C1CC(C)(C)C1)Cc1cccnc1N2 (stereo not shown) [Example 501, 6-[(3,3-dimethylcyclobutyl)carbonyl]-8-(5-propanoyl-2,5-diazabicyclo[2.2.2]oct-2-yl)-6,11-dihydro-5H-pyrido[2,3-b][1,5]benzodiazepine] |
| 0.74 | CO[C@@H]1[C@H](C)C[C@@H](C(=O)N2Cc3cccnc3Nc3ccc(N4CCOCC4)cc32)C[C@@H]1C [Example 122, 6-{[(1s,3R,4s,5S)-4-methoxy-3,5-dimethylcyclohexyl]car-bonyl}-8-morpholin-4-yl-6,11-dihydro-5H-pyrido[2,3-b][1,5]benzodiazepine] |

Further lines, the molecule ahead of its results:

| Compound | IC50 [µM] |
| --- | --- |
| CO[C@H]1CC[C@@H](C(=O)N2Cc3cccnc3Nc3ccc(C(N4CCCC4)C(F)(F)F)cc32)CC1 (relative stereo) [Example 8, 6-[(Cis-4-methoxycyclohexyl)carbonyl]-8-(2,2,2-trifluoro-1-pyrrolidin-1-ylethyl)-6,11-dihydro-5H-pyrido[2,3-b][1,5]benzodiazepine] | 0.076 |
| CC(C)O[C@H]1CC[C@H](C(=O)N2Cc3cccnc3Nc3ccc(C4(C#N)CCOCC4)cc32)OC1 [Example 19, 4-(6-((2R,5S)-5-isopropoxytetrahydro-2H-pyran-2-carbonyl)-6,11-dihydro-5H-benzo[b]pyrido[2,3-e][1,4]diazepin-8-yl)tetrahydro-2H-pyran-4-carbonitrile] | 0.018 |
| CO[C@H]1CC[C@H](C(=O)N2Cc3cccnc3Nc3ccc(N4CCn5c(cnc5C(C)C)C4)cc32)CC1 [Example 278, 6-[(trans-4-methoxycyclohexyl)carbonyl]-8-[3-(1-methylethyl)-5,6-dihydroimidazo[1,5-a]pyrazin-7(8H)-yl]-6,11-dihydro-5H-pyrido[2,3-b][1,5]benzodiazepine] | 0.597 |
| CO[C@H]1CC[C@H](C(=O)N2Cc3cccnc3Nc3ccc(N(C)C4CCOCC4)cc32)CC1 [Example 251, 6-[(trans-4-methoxycyclohexyl)carbonyl]-N-methyl-N-(tetrahydro-2H-pyran-4-yl)-6,11-dihydro-5H-pyrido[2,3-b][1,5]benzodiazepin-8-amine] | 0.326 |
| CO[C@H]1CC[C@H](C(=O)N2Cc3cccnc3Nc3ccc(-c4ccn(C)n4)cc32)CC1 [Example 184, 6-[(trans-4-methoxycyclohexyl)carbonyl]-8-(1-methyl-1H-pyrazol-3-yl)-6,11-dihydro-5H-pyrido[2,3-b][1,5]benzodiazepine] | 0.556 |
| CC(C)O[C@H]1CC[C@H](C(=O)N2Cc3cccnc3Nc3ccc(C4=CCN(C)C(=O)C4)cc32)CC1 [Example 372, 1-methyl-4-(6-{[trans-4-(1-methylethoxy)cyclohexyl]carbonyl}-6,11-dihydro-5H-pyrido[2,3-b][1,5]benzodiazepin-8-yl)-3,6-dihydropyridin-2(1H)-one] | 0.02 |
| CC(C)O[C@H]1CC[C@H](C(=O)N2Cc3cccnc3Nc3ccc(N4C5CO[C@H]6[C@@H]5OC[C@H]64)cc32)CC1 [Example 319, 8-[(3R,3aR,6S,6aR)-hexahydro-3,6-epiminofuro[3,2-b]furan-7-yl]-6-{[trans-4-(1-methylethoxy)cyclohexyl]car-bonyl}-6,11-dihydro-5H-pyrido[2,3-b][1,5]benzodiazepine] | 0.018 |
| COCCn1cc(-c2ccc3c(c2)N(C(=O)[C@H]2CC[C@H](OC)CC2)Cc2cccnc2N3)cn1 [Example 365, 6-[(trans-4-methoxycyclohexyl)carbonyl]-8-[1-(2-methoxyethyl)-1H-pyrazol-4-yl]-6,11-dihydro-5H-pyrido[2,3-b][1,5]benzodiazepine] | 0.127 |
| CC(C)O[C@H]1CC[C@H](C(=O)N2Cc3cccnc3Nc3ccc(C4COCCO4)cc32)OC1 (single isomer, unassigned) [Example 13] | 0.058 |
| COc1ccc(C2CN(c3ccc4c(c3)N(C(=O)[C@H]3CC[C@H](OC)CC3)Cc3cccnc3N4)CCO2)cc1 (stereo partly drawn) [Example 253, 6-[(trans-4-methoxycyclohexyl)carbonyl]-8-[2-(4-methoxyphenyl)morpholin-4-yl]-6,11-dihydro-5H-pyrido[2,3-b][1,5]benzodiazepine] | 0.295 |
| CC(C)O[C@H]1CC[C@H](C(=O)N2Cc3cccnc3Nc3ccc(C4CC(F)CO4)cc32)OC1 (stereo partly drawn) [Example 540, (8-(4-Fluorotetrahydrofuran-2-yl)-5,11-dihydro-6H-benzo[b]pyrido[2,3-e][1,4]diazepin-6-yl)((2R,5S)-5-isopropoxytetrahydro-2H-pyran-2-yl)methanone] | 0.059 |
| CCO[C@@H]1CC[C@H](C(=O)N2Cc3cccnc3Nc3ccc(N4CC5CCC(C4)O5)cc32)C1 [Example 155, 6-{[(1S,3R)-3-ethoxycyclopentyl]carbon-yl}-8-(8-oxa-3-azabicyclo[3.2.1]oct-3-yl)-6,11-dihydro-5H-pyrido[2,3-b][1,5]benzodiazepine] | 0.055 |
| O=C(C1CCC(C(F)(F)F)CC1)N1Cc2cccnc2Nc2ccc(Br)cc21 (stereo not shown) [Example 75, 8-bromo-6-{[4-(trifluoromethyl)cyclohex-yl]carbonyl}-6,11-dihydro-5H-pyrido[2,3-b][1,5]benzodiazepine] | 0.083 |
| O=C([C@H]1CC[C@H](C2CCOCC2)CC1)N1Cc2cccnc2Nc2ccc(N3CCOCC3)cc21 [Example 131, 8-morpholin-4-yl-6-{[trans-4-(tetrahydro-2H-pyran-4-yl)cyclohexyl]carbonyl}-6,11-dihydro-5H-pyrido[2,3-b][1,5]benzodiazepine] | 0.103 |
| O=C(C1CCN(CC(F)(F)F)C1)N1Cc2cccnc2Nc2ccc(N3CCOCC3)cc21 (stereo not shown) [Example 50, 8-morpholin-4-yl-6-{[1-(2,2,2-trifluoroethyl)pyrrolidin-3-yl]carbonyl}-6,11-dihydro-5H-pyrido[2,3-b][1,5]benzodiazepine] | 0.686 |
| CO[C@H]1CC[C@@H](C(=O)N2Cc3cccnc3Nc3ccc(N4CCN(C5(C(F)(F)F)CC5)CC4)cc32)CC1 [Example 242, 6-[(cis-4-methoxycyclohexyl)carbonyl]-8-{4-[1-(trifluoromethyl)cyclopropyl]piperazin-1-yl}-6,11-dihydro-5H-pyrido[2,3-b][1,5]benzodiazepine] | 0.177 |
| O=C([C@H]1CC[C@H](NC2(C(F)(F)F)CC2)CC1)N1Cc2cccnc2Nc2ccc(C3CCOCC3)cc21 [Example 381, trans-4-{[8-(tetrahydro-2H-pyran-4-yl)-5,11-dihydro-6H-pyrido[2,3-b][1,5]benzodiazepin-6-yl]carbonyl}-N-[1-(trifluoromethyl)cyclopropyl] cyclohexanamine] | 0.015 |
| CO[C@@H]1CCN(c2ccc3c(c2)N(C(=O)[C@H]2CC[C@H](OC(C)C)CO2)Cc2cccnc2N3)[C@H](C)C1 (single isomer, unassigned) [Example 44] | 0.035 |
